# Earlier results as cited in patent US9809865B2, “Anti-microbial agent from Paenibacillus sp. and methods and uses thereof” (Best Environmental Technologies, Inc., priority 2009, dated 2017).
# Settings: 121° C. for 15 min at pH 3; cited from earlier work
substance,measurement,value
nisin,Activity after heat treatment,remained active
